Values quoted from earlier work in article PMC5584065 (Biochemical pharmacology, 2015).
Where “and” joins values, the source holds several entries; their conditions need not be identical. Equal entries are not always repeated.

Settings: after a single therapeutic dose; cited from earlier work

CC(=O)Nc1ccc(O)cc1 [acetaminophen]
typical maximum plasma concentrations: 5–20 mg/L and 33–132 µM
